Experimental data published in PMC8480901 (PLoS ONE, 2021).

System: J774.2 mouse macrophages
Test: LPS-induced cytokine and chemokine levels in J774.2 mouse macrophage cell supernatant (ELISA)
Assay type: cell-based

C[C@@H]1C[C@H]2[C@@H]3CCC4=CC(=O)C=C[C@]4(C)[C@@]3(F)[C@@H](O)C[C@]2(C)[C@@]1(O)C(=O)CO [Dexamethasone]
TNF-α % reduction (0.001 µM, J774.2 supernatant): 1.59% | CXCL1 % reduction (J774.2 cells, compound 0.03 µM): -159%
